The values below are quoted from earlier work in US9095653B2, “Method for the timed dosage of medicaments” (BAYER INTELLECTUAL PROPERTY GMBH, priority 2004, dated 2015).

For the series the following is noted: cited from earlier work.

As for `Cn1c(=O)c2[nH]cnc2n(C)c1=O` [Theophylline], the “plasma concentration above which risk of undesired side-effects (nausea, trembling, accelerated heart rate) increases” value is greater than 20000 ng/mL.
